pEC50: −log10 of the molar value.
What was measured:
[1] = biological target: 5-hydroxytryptamine receptor 2B (Homo sapiens, UniProt P41595); assay: Agonist activity at human 5-HT2B receptor expressed in Flp-IN HEK293 cells assessed as induction of calcium flux measured every second for 5 mins by Fluo-4 dye based FLIPR assay; assay type: cell-based
[2] = biological target: T1, 5-hydroxytryptamine receptor 2C (Homo sapiens, UniProt P28335); assay: Ratio of Emax to EC50 for tTA containing TEV cleavage site-fused 5-HT2C-INI receptor isoform (unknown origin) expressed in TEV-fused beta-arrestin2 expressing HEK cells assessed as induction of beta-arrestin2 recruitment activity; assay type: cell-based
[3] = biological target: T1, 5-hydroxytryptamine receptor 2C; assay: Ratio of Emax to EC50 for human 5-HT2C-INI receptor isoform expressed in Flp-IN HEK293 cells; assay type: cell-based
[4] = biological target: T1, 5-hydroxytryptamine receptor 2C; assay: Agonist activity at tTA containing TEV cleavage site-fused 5-HT2C-INI receptor isoform (unknown origin) expressed in TEV-fused beta-arrestin2 expressing HEK cells assessed as induction of beta-arrestin2 recruitment after 20 hrs by Tango assay; assay type: cell-based
[5] = biological target: 5-hydroxytryptamine receptor 2A (Homo sapiens, UniProt P28223); assay: Agonist activity at human 5-HT2A receptor expressed in Flp-IN HEK293 cells assessed as induction of calcium flux measured every second for 5 mins by Fluo-4 dye based FLIPR assay; assay type: cell-based
[6] = biological target: T1, 5-hydroxytryptamine receptor 2C; assay: Agonist activity at human 5-HT2C-INI receptor isoform expressed in Flp-IN HEK293 cells assessed as induction of Gq-mediated calcium flux measured every second for 5 mins by Fluo-4 dye based FLIPR assay; assay type: functional, cell-based

By UniProt entry, the sequences of proteins in these tests, tags left out. Where a name states a change or a piece, a line headed by the entry shows the natural chain unless it says otherwise.
UniProt P41595, whole entry: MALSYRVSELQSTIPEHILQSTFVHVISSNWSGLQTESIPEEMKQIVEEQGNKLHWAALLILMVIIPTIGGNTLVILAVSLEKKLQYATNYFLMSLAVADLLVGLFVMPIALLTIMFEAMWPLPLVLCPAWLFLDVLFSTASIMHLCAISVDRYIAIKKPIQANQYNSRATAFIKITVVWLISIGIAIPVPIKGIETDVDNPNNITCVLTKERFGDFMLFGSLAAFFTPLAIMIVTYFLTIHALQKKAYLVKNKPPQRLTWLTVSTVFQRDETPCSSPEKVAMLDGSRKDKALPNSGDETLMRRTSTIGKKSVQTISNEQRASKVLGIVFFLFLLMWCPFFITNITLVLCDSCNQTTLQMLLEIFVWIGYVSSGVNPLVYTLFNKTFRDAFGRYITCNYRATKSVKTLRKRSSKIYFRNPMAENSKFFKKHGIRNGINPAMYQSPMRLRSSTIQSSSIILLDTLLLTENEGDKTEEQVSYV
UniProt P28335: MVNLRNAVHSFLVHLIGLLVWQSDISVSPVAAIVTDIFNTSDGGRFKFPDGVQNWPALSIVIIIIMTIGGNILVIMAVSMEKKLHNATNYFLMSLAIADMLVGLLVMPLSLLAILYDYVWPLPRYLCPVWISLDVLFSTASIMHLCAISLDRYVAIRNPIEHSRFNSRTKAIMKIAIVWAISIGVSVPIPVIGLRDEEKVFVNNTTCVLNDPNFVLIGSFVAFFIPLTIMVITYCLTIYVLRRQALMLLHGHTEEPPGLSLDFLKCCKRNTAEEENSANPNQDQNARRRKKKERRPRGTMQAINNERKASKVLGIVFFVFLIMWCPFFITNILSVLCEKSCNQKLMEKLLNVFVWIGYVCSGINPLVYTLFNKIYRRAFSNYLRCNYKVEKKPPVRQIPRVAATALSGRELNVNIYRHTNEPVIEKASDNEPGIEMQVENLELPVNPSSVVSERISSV
UniProt P28223, whole entry: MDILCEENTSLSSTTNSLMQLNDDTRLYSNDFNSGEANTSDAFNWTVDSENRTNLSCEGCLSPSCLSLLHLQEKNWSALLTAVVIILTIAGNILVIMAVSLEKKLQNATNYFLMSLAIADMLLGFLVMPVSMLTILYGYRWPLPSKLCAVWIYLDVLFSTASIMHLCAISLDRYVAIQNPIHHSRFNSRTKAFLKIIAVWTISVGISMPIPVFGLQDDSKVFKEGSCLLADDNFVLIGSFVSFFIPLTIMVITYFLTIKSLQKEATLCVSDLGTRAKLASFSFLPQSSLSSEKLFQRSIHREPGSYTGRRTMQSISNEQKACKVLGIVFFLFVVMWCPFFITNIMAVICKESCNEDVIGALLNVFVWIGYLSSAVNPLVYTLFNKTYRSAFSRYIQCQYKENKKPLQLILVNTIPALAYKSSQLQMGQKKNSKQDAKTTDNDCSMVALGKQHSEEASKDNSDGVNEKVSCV

COc1ccccc1CNC[C@H]1C[C@@H]1c1cc(F)ccc1OCCF
pEC50 [1]: 7.62 | log(ratio) [2]: 7.69 | log(ratio) [3]: 8.59 | pEC50 [4]: 7.96 | pEC50 [5]: 7.62 | pEC50 ([6]; read-out: EC50): 8.62 | EC50 ([6]; read-out: pEC50 (converted)): 2.24 to 2.4 nM

— ChEMBL document CHEMBL4011649 (J Med Chem, 2017)
